This note sets out measurements from patent US20230144211A1, “ANTIFOLATE LINKER-DRUGS AND ANTIBODY-DRUG CONJUGATES” (Byondis B.V., priority 2020, published 2023).

Where only a bound is given, the exact number is not on record here.

Test in all cases: In vitro cell viability assay (CellTiter-Glo, 6 days)
(In general: ATP-based viability assays read luminescence as a measure of living cells.)

Data set [1] deals with Jurkat NucLight Red cells. The class given is cell-based, human. Particulars: antifolate ADCs, Table 3d. How it is done: (§1) Human tumor cell lines SK-BR-3, SW-620, A-549, BT-474, Jurkat Clone E6-1, AU-565, and SK-OV-3 were obtained from American Type Culture Collection (Rockville, Md., USA). FaDu, BxPC-3, HeLa, MV4-11, and RAJI cell lines were obtained from Deutsche Sammlung von Mikroorganismen und Zellkulturen (Leipzig, Germany). Jurkat NucLight Red cells were obtained from Essen BioScience Inc. (Ann Arbor, Mich., USA). SK-BR-3 and SK-OV-3 cells were cultured in McCoys 5A medium (Lonza; Walkersville, Md., USA) supplemented with 10% v/w Fetal Bovine Serum (FBS), Heat-inactivated (HI) (Gibco-Life Technologies; Carlsbad, Calif.) and 80 U/mL Pen/Strep (Gibco-Life Technologies), at 37° C. in a humidified incubator under 5% CO2 atmosphere. SW-620 cells were similarly maintained in RPMI 1640 medium (Lonza), containing 10% v/w FBS HI and 80 U/mL Pen/Strep. A-549 cells were similarly maintained in F-12K Nutrient Mixture (1×) (Gibco-Life Technologies) media supplemented with 80 U/mL Pen/Strep and 5% v/w FBS, which was Qualified (Q) (Gibco-Life Technologies). BT-474 and AU-565 cells were similarly maintained in RPMI 1640 medium (Lonza), containing 10% v/w FBS, which was Qualified (Q) (Gibco-Life Technologies), and 80 U/mL Pen/Strep. Jurkat Clone E6-1, BxPC-3, HeLa, MV4-11, and RAJI cells were similarly maintained in RPMI 1640 medium (Lonza), containing 10% v/w FBS HI and 80 U/mL Pen/Strep. Jurkat NucLight Red cells were similarly maintained in RPMI 1640 medium (Lonza), containing 10% v/w FBS HI, 80 U/mL Pen/Strep and 0.5 μg/mL Puromycin (Gibco-Life Technologies). FaDu cells were cultured in EMEM medium (Lonza) supplemented with 10% v/w FBS HI (Gibco-Life Technologies), 1× GlutaMAX (Gibco-Life Technologies), and 80 U/mL Pen/Strep (Gibco-Life Technologies), at 37° C. in a humidified incubator under 5% CO2 atmosphere.
Cells in complete growth medium were plated in 96-well plates (90 μL/well) and incubated at 37° C., 5% CO2 at the following cell densities: 6500 SK-BR-3, 4000 SW-620, 2500 A-549, 10000 BT-474, 3000 Jurkat Clone E6-1, 5000 AU-565, 1250 FaDu, 1250 BxPC-3, 1000 HeLa, 7500 MV4-11, 1000 RAJI, 3000 Jurkat NucLight Red, and 4000 SK-OV-3 cells per well. After an overnight incubation, 10 serial log 10 dilutions of the free drugs were made in DMSO (Sigma-Aldrich). These free drug dose-response curves were 10-times further diluted in complete growth medium. For the ADCs according to the invention 10 serial log 10 dilutions were made in complete growth medium. 10 μL of a composition comprising a free drug or an ADC according to the invention was added to the assay plate (final DMSO content for free drugs was 1%). […] Cell viability was assessed after 6 days using a luminescent assay kit (CellTiter-Glo™ (CTG), Promega Corporation) according to the manufacturer's instructions. Percentage cell survival was calculated by dividing the measured luminescence for each free drug or ADC according to the concentration with the average mean of untreated cells (1% or 0.1% DMSO control (for free drugs) or 100% complete growth medium (for ADCs)) multiplied by 100.
(§2) Curves were fitted by non-linear regression using the sigmoidal dose-response equation with variable slope (four parameters) using curve-fitting software (GraphPad Prism, version 9.4.0 for Windows, GraphPad, San Diego, Calif. or Electronic Laboratory Notebook (ELN) add-in BioAssay, version 19.1.0.0218, Perkin Elmer, Waltham, Mass.). Relative IC50 values were calculated as the concentration that gives a response halfway between bottom and top of the curve, when using a 4-parameter logistic fit. Data were reported as mean IC50 value of at least one experiment performed in duplicate.

A further data set deals with SK-BR-3 cells. It is filed as cell-based. To be noted: ADCs; HER2-positive SK-BR-3 human tumor cell line. How it is done: as §1, with “FaDu,” for “Human tumor cell lines SK-BR-3, SW-620, A-549, BT-474, Jurkat Clone E6-1, AU-565, and SK-OV-3 were obtained from American Type Culture Collection (Rockville, Md., USA). FaDu,”, “Jurkat Clone E6-1, BxPC-3, HeLa, MV4-11, and RAJI cells were similarly maintained in RPMI 1640 medium (Lonza), containing 10% v/w FBS HI and 80 U/mL Pen/Strep.” left out
(§3) After an overnight incubation, 10 serial log 10 dilutions of the free drugs were made in DMSO (Sigma-Aldrich). These free drug dose-response curves were 10-times further diluted in complete growth medium. For the ADCs according to the invention 10 serial log 10 dilutions were made in complete growth medium. 10 μL of a composition comprising a free drug or an ADC according to the invention was added to the assay plate (final DMSO content for free drugs was 1%). […] […] Percentage cell survival was calculated by dividing the measured luminescence for each free drug or ADC according to the concentration with the average mean of untreated cells (1% or 0.1% DMSO control (for free drugs) or 100% complete growth medium (for ADCs)) multiplied by 100.
as §2

In a further data set the test system is AU-565 cells. The class given is cell-based, human. To be noted: antifolate ADCs, Table 3c. How it is done:
as §1, with “FaDu,” for “Human tumor cell lines SK-BR-3, SW-620, A-549, BT-474, Jurkat Clone E6-1, AU-565, and SK-OV-3 were obtained from American Type Culture Collection (Rockville, Md., USA). FaDu,”, “Jurkat Clone E6-1, BxPC-3, HeLa, MV4-11, and RAJI cells were similarly maintained in RPMI 1640 medium (Lonza), containing 10% v/w FBS HI and 80 U/mL Pen/Strep.” left out
as §3, §2

For another data set, the system named is BT-474 cells. The class given is cell-based, human. To be noted: antifolate ADCs, Table 3c. How it is done: as §1, with “FaDu,” for “Human tumor cell lines SK-BR-3, SW-620, A-549, BT-474, Jurkat Clone E6-1, AU-565, and SK-OV-3 were obtained from American Type Culture Collection (Rockville, Md., USA). FaDu,”, “Jurkat Clone E6-1, BxPC-3, HeLa, MV4-11, and RAJI cells were similarly maintained in RPMI 1640 medium (Lonza), containing 10% v/w FBS HI and 80 U/mL Pen/Strep.” left out
as §3, §2

As for “Trastuzumab conjugate DAR8-XG2 wild-type conjugation”, the “Jurkat NucLight Red cells IC50 (μg/mL)” value in data set [1] (# no full dose-response curve) is reported as >10^# μg/mL. The “Jurkat NucLight Red cells Efficacy (%)” value in data set [1] (from minimum % viability at highest concentration) was found to be 5%. Moreover, in the data set on SK-BR-3 cells, the “cytotoxicity in SK-BR-3 cells, comparison in words” value is on record as “more active”. For the same substance, the “AU-565 cells IC50” value with AU-565 cells worked out at 0.015 µg/mL. The “BT-474 cells IC50” value in the data set with BT-474 cells worked out at 0.036 µg/mL.
